Apparent affinities of Ab-14 variants for a coronavirus HR2 peptide

Data: MIT Lincoln Laboratory AlphaSeq set, Engelhart et al. 2022, doi:10.1038/s41597-022-01779-4, as distributed in FLAb.

Target: peptide PDVDLGDISGINAS, taken from heptad repeat 2 (HR2) of SARS-CoV-2 spike.

Each scFv is VH, three GGGGS repeats, VL, as in the parent Ab-14, and differs from it in the CDRs of the heavy chain only.
VH: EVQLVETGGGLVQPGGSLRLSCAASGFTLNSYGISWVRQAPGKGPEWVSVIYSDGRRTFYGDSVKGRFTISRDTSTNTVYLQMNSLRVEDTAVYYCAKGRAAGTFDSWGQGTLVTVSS
VL: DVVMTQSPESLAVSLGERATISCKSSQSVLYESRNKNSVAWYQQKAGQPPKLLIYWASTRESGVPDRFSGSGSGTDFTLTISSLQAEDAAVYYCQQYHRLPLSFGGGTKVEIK

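Library AAYL49 holds single substitutions and randomly drawn double and triple substitutions in the CDRs. The scFvs were displayed on barcoded MATa yeast, the peptide on MATalpha yeast. Binding brings cells together so that they mate, and sequencing counts the barcode pairs among the diploids. A regression on co-assayed BCL2-family reference pairs converts the normalised counts of each replicate to an apparent Kd. Mating was done three times.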

The parent's heavy chain CDRs are GFTLNSYGIS, VIYSDGRRTFYGDSVK, GRAAGTFDS; each variant's own CDRs replace them letter for letter. This list gathers variants with a substitution at Y32 (VH, numbered from residue 1). Affinities are written as log10 Kd with Kd in nM; a lower number is a better binder. The mean shown is taken over the replicates in which the pair was detected. An entry "not detected" has no value in the source: the pair was not observed among the diploids in any replicate. This suggests poor binding but is not conclusive. For reference, the parent read 0.65 as the reference entry and 4.11 (one replicate of three) as a member of this library. Background: pairings of library AAYL49 with three empty control strains gave a value in 15% of cases (median 4.06, 5th percentile 2.83). Values in that range, when seen in few replicates, are hard to tell from nonspecific mating. The control count says in how many pairings with the empty strains this scFv gave a signal.

CDR-H1	CDR-H2	CDR-H3	log10 Kd (nM), mean	seen in	control signals
GWTLNSPGIS	VIYSDGRRTFYGDSVK	GRAAGTYDS	4.43	3/3	1/9
GFTLNSKGIS	VIYSDGRRTFYGDSVK	GRAIRTFDS	not detected	0/3	0/9
GFTNNSTGIS	VIYCDGRRTFYGDSVK	GRAAGTFDS	not detected	0/3	1/9
GFTLNSSGIS	QIYSDGRRTFYGDVVK	GRAAGTFDS	3.92	1/3	6/9
GFTYNSPGIS	VIYSCGRRTFYGDSVK	GRAAGTFDS	6.33	1/3	6/9
GFTYNSDGIS	VIYSDGRRTFYIDSVK	GRAAGTFDS	not detected	0/3	1/9
GFTLGSKGIW	VIYSDGRRTFYGDSVK	GRAAGTFDS	not detected	0/3	1/9
GFTLNSHGIN	VIYSDGRRTFRGDSVK	GRAAGTFDS	4.39	1/3	0/9
GFTLNSWAIS	VIYSDGRRTFYGDSVK	GRAARTFDS	not detected	0/3	1/9
GFTLNGNGIS	VIYSDGRRTFYGDSVK	GRAAGTFDK	4.05	2/3	1/9
GFTSNSRGIS	VIYSDGRRTFYGDSVK	GRPAGTFDS	not detected	0/3	0/9
GFTLNSFVIS	VIYSDGRPTFYGDSVK	GRAAGTFDS	not detected	0/3	0/9
GFTLNSEGIS	VIKSDGRRTFYGDSVK	GRHAGTFDS	4.91	1/3	0/9
GFTLNSMGIS	VIGSDGYRTFYGDSVK	GRAAGTFDS	not detected	0/3	0/9
GFTLNSMGIS	VHYSDGRRTFYGDSVK	GRCAGTFDS	4.37	2/3	2/9
GFTANSAGIS	VIKSDGRRTFYGDSVK	GRAAGTFDS	4.50	1/3	1/9
GFTLNSWPIG	VIYSDGRRTFYGDSVK	GRAAGTFDS	5.66	1/3	3/9
GFTLNSKCIS	VIYSDYRRTFYGDSVK	GRAAGTFDS	4.72	1/3	1/9
GFTLLSHGIS	VIYSDGRRTFYGDSVK	GRYAGTFDS	not detected	0/3	0/9
GFTLNSVGIS	VIYSDGRRTFYGDSSK	GRAAGCFDS	3.16	2/3	1/9
GFTLNSSGIS	VIYSDGRRTFYGDSVK	GRAAGTFDS	not detected	0/3	2/9
GFTLNSRGIS	VIYSDGRETFYGDSVK	GRAAGTFDS	not detected	0/3	2/9
GFWLNSQGIS	VIYSDGRATFYGDSVK	GRAAGTFDS	not detected	0/3	0/9
GFTLNSTGIS	VIYSDGRRMFYGDSVK	GRAAGTFDS	4.02	1/3	1/9
GFTLNSQGIN	VIYSDGRRTFNGDSVK	GRAAGTFDS	not detected	0/3	1/9
GFQLNSRGIS	VIYSDSRRTFYGDSVK	GRAAGTFDS	not detected	0/3	0/9
GFTLNSDGIS	VIYSCDRRTFYGDSVK	GRAAGTFDS	not detected	0/3	3/9
GFTLNSVGIS	VIYSDGRRTFYVDSVK	GRAAGRFDS	1.86	3/3	2/9
GFTLNSGGIS	VIYSDGRRTFYGDSVK	GRAAGTFDS	not detected	0/3	3/9
NFTLNSPGIS	VIYSGGRRTFYGDSVK	GRAAGTFDS	not detected	0/3	0/9
GFTLNSWGIS	VIYSDGRRTFYWDSVK	GRASGTFDS	3.86	1/3	1/9
GFTLNSDGIS	VINSDGRRTFYSDSVK	GRAAGTFDS	5.65	1/3	1/9
GFTLNSLGIS	VQYSDGRRTFYGDSVK	GCAAGTFDS	not detected	0/3	0/9
GFTLNSDGIS	VIYSDGRRTFYGDMVK	GRAAETFDS	3.87	1/3	0/9
GFTLNSPGIS	VIYSDGRRTFYGDSFQ	GRAAGTFDS	5.03	1/3	3/9
GFTLNSGGIS	VIYSDGNRTFYGDSVK	GRKAGTFDS	4.65	2/3	2/9
GFTLNSHGIS	VEYSDGRRTFQGDSVK	GRAAGTFDS	3.84	1/3	3/9
GFTLNSSIIS	VIYSDGRRTFYGDSVQ	GRAAGTFDS	2.63	1/3	2/9
EFTLNSFGIS	VIYSDGRRTFYGDSVK	GRANGTFDS	not detected	0/3	0/9
GFTLNSVGIS	VIYGDGRRTFYGDSVK	GRCAGTFDS	4.90	1/3	6/9
EFTLNSHGIS	VIYSDGRRTFYGWSVK	GRAAGTFDS	4.92	3/3	1/9
GFTLNMDGIS	VIYSDGRRTFYGDSVK	GRAAGTFDS	5.71	2/3	4/9
GFTLNSFGIS	VIYSDHRRTFYGDSVK	GRAAGTFDS	not detected	0/3	1/9
GFTLNSGGIF	VIYSDGNRTFYGDSVK	GRAAGTFDS	3.61	1/3	0/9
GFTLNSSGIS	VIYSDGRRTFYGDSIK	GRAAGTHDS	not detected	0/3	0/9
GFTLNSAGIS	VIYSDGRRTFYGDNDK	GRAAGTFDS	4.29	1/3	4/9
GFTLNSCGIS	VIYMDGRRTFYGDSVK	GRAAGTFDC	not detected	0/3	2/9
GVTLNSCGIS	VIYSDGYRTFYGDSVK	GRAAGTFDS	3.33	1/3	3/9
GFTLNSLEIS	VIYSDGRYTFYGDSVK	GRAAGTFDS	not detected	0/3	0/9
GFTLNSFGIS	VIYSDGRRTFYIDGVK	GRAAGTFDS	1.76	3/3	1/9
GFTLNSHGES	VIYSDGRRTFYGDSVK	GRAADTFDS	not detected	0/3	0/9
GFTLNSCGIS	VIYSDGRFTFYNDSVK	GRAAGTFDS	4.03	2/3	1/9
GFTLNSFGIS	VIYSDGRRTFYGISVK	GRAAGDFDS	3.90	1/3	3/9

Picked from the list: the 4 lowest averages where every replicate gave a value.

CDR-H1	CDR-H2	CDR-H3	log10 Kd (nM), mean	seen in	control signals
GFTLNSFGIS	VIYSDGRRTFYIDGVK	GRAAGTFDS	1.76	3/3	1/9
GFTLNSVGIS	VIYSDGRRTFYVDSVK	GRAAGRFDS	1.86	3/3	2/9
GWTLNSPGIS	VIYSDGRRTFYGDSVK	GRAAGTYDS	4.43	3/3	1/9
EFTLNSHGIS	VIYSDGRRTFYGWSVK	GRAAGTFDS	4.92	3/3	1/9